## Ab-95 light chain CDR variants: yeast mating affinities

Data: MIT Lincoln Laboratory AlphaSeq set, Engelhart et al. 2022, doi:10.1038/s41597-022-01779-4, as distributed in FLAb.

Target: peptide PDVDLGDISGINAS, taken from heptad repeat 2 (HR2) of SARS-CoV-2 spike.

Parent scFv Ab-95: VH joined to VL by the linker GGGGSGGGGSGGGGS. Changes lie in the light chain CDRs alone.
VH: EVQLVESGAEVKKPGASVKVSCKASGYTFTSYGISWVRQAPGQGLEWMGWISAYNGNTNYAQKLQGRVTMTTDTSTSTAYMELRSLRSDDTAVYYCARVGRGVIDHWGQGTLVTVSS
VL: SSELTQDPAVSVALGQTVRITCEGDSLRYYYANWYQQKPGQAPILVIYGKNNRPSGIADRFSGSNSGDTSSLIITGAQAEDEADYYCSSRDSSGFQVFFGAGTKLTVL

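The parent was found by panning a naive human phage display library on the peptide. Variants in AAYL52 differ from the parent at up to three CDR positions; double and triple changes were sampled at random. Affinity was read by AlphaSeq, a pooled yeast mating assay with surface-displayed partners. The frequency of each diploid, read from paired DNA barcodes, reflects how well the two displayed proteins bind. Read counts were normalised to the haploid input and turned into Kd by a linear fit to BCL2-family pairs of known affinity, for each replicate. There are three technical replicates.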

Each variant is given by its three light chain CDRs, as the data file delimits them; those of the parent are EGDSLRYYYAN, GKNNRPS, SSRDSSGFQVF. The Kd shown is the geometric mean over detected replicates; a lower Kd is a better binder. A pair that was not seen in any replicate is written "not detected"; this usually means weak binding, but a binder can also be missed. Three control strains display no target. For library AAYL52, 28% of the pairings with them gave a signal, with a median of 8.2 µM and one signal in twenty below 800 nM, so weak values seen in few replicates may be background.

CDR-L1,CDR-L2,CDR-L3,apparent Kd,seen in
EGDSLRYKYAN,GKNNRPS,SSRDGSGFQLF,65 nM,3 of 3
EGDSLRYYVAN,GKNNRPS,SSSDSSGFQVF,170 µM,1 of 3
EGDSLRYYRAN,GKNNPPS,SSRDSSGFQVY,1.3 µM,2 of 3
EGSSLRYYYAN,GKSNRHS,SSRDSSGFQVF,1.2 µM,3 of 3
EGDSDRYYYAN,GKNNRPS,SSRDSSGMQVM,5.6 µM,2 of 3
EFDSLRYYIAN,GKNNRPK,SSRDSSGFQVF,21 µM,1 of 3
EGDSLRYYYAN,GKNSRPS,SSRDTSSFQVF,4.8 µM,3 of 3
EGDSLRYYSAN,GKNNRPS,SSRESSGFQVE,120 nM,3 of 3
ERISLRYYYAN,GKNNRPS,SSRDSSGFQVF,not detected,0 of 3
EGDSDYYYYAN,GKNNRPS,SSHDSSGFQVF,7.5 µM,3 of 3
EGDSLRYTYAN,GGNNRPS,SSRDSSGFQVG,20 nM,3 of 3
EGDSLRYYHAN,GKNNRPS,SSMDSSGFQAF,1.0 µM,3 of 3
EGDSLRYYYAN,GKNNPVS,SSRDRSGFQVF,620 nM,3 of 3
IGDSLREYYAN,GKNNRPS,SSRDSDGFQVF,380 nM,3 of 3
EGDSLRDYYAN,EKNNRPS,SSCDSSGFQVF,not detected,0 of 3
EGDSMKYYYAN,GKNNRPS,SSRDSSGSQVF,750 nM,3 of 3
EGDSLRYYYAN,GKNNRPS,SSRVSVGFQVF,45 nM,3 of 3
EGDHLRYYYAN,HKNNRPF,SSRDSSGFQVF,12 µM,1 of 3
EGDSLRYYYAY,GKNNRPS,SYRDSSGFQVL,7.5 µM,2 of 3
EGDSLKYYYAN,GKNNRPS,SSRDSSGRQVF,8.7 µM,1 of 3
EGDSLRYYYAN,GKGNRPS,SSRDIAGFQVF,210 nM,3 of 3
EGDSLRYYYEG,GKNNRPS,SSRDSSGFYVF,1.8 µM,2 of 3
EPDSLRYYYAN,GKMNRPS,SSGDSSGFQVF,30 µM,1 of 3
EGDSLRWYYAN,GKNNRPS,SSRNSSGFQVL,810 nM,3 of 3
EGDSLRYYYAN,GTHNRPS,PSRDSSGFQVF,740 nM,3 of 3
EGDSLRWYYPN,GKNNRPS,SSRDSSGFQVF,290 nM,3 of 3
EGQSLRYYYLN,GKNNKPS,SSRDSSGFQVF,610 nM,3 of 3
EGDSLRYYYAN,GKNLRPS,SSRPSSGFQVD,110 µM,2 of 3
EGDSLRQYYAV,GKNNRPS,SSRDSSGFFVF,3.7 µM,1 of 3
EGDSLRARYAN,GNNNRPS,SSRDSSGFQVF,2.2 nM,3 of 3
EGFSLRYYYAN,GKNNRWS,SGRDSSGFQVF,not detected,0 of 3
EGASNRYYYAN,GKNNRES,SSRDSSGFQVF,not detected,0 of 3
EGDSLRYYYAN,GKNNCPS,SYRDSSGFLVF,36 µM,2 of 3
EGDSLRYYYAN,GKNNRHS,SSRDSSMFQVF,4.1 µM,3 of 3
EGDSARYYYAN,GKKNRPS,ESRDSSGFQVF,not detected,0 of 3
EGDSLRYYYVN,GKNNRPI,SSRDSSGFEVF,1.3 µM,2 of 3
EGDSLRYYYAN,WKQNRPS,SSRDSSGFAVF,not detected,0 of 3
EGKSLRYYYAN,GKNNRPS,SSRDWSGFMVF,740 nM,3 of 3
NGDSLRYYYAN,TKNNRPS,SKRDSSGFQVF,39 µM,1 of 3
EGDSLRYYYAN,GKNNKPS,SSRDSSGFWVS,190 nM,3 of 3
EHDSLRYYYAK,GKNNRPS,SKRDSSGFQVF,3.8 µM,1 of 3
EGDSLRYYYAN,GDNNRPS,SSRDDSEFQVF,not detected,0 of 3
EGDSLRYYIAN,GANNRPS,SSRDSSGFRVF,1.6 µM,2 of 3
EGDTLRYYYAN,GKNNRPS,SYRDSGGFQVF,not detected,0 of 3
EGDRLTYYYAN,GKNNRPS,SSRDSSGLQVF,not detected,0 of 3
EGDMLRYYYAN,GKNNRPS,SSRDSRGFQVH,6.1 µM,1 of 3
EGDSLRYYYKN,GKNNMPS,SSCDSSGFQVF,not detected,0 of 3
EGDSLRYYQGN,KKNNRPS,SSRDSSGFQVF,49 µM,1 of 3
EGGSLRYYYAN,GKNHRPS,SSRWSSGFQVF,9.9 µM,2 of 3
EGDHLRYYYSN,GKNNRPS,SSRDSSGFQVH,350 nM,3 of 3
EGDSLRYYYAN,GKNNRPR,SSRDSSWFQVF,1.7 µM,2 of 3
EIDSARYYYAN,MKNNRPS,SSRDSSGFQVF,660 µM,1 of 3
EGDDLRYYYAN,GKNNRPS,SNRDSSGFQVW,1.4 µM,2 of 3
EGDSLRYGYAN,GKNNRPS,SSRDSMGIQVF,320 nM,3 of 3
EGDSLRYSYAN,GKNNRPT,SSRDSSGFQVF,7.9 nM,3 of 3
EGDSLVYYYAN,GKNNRGS,SSFDSSGFQVF,11 µM,3 of 3
EGDSLRAYVAN,GKNNRPS,SSRDSSGFTVF,3.3 µM,3 of 3
EIDSLRYYYAN,KKNNRPS,NSRDSSGFQVF,5.9 µM,2 of 3